The values that follow come from article PMC7870876.

The chains behind the UniProt entries cited, without tags or fusion partners.
UniProt P32851, whole entry: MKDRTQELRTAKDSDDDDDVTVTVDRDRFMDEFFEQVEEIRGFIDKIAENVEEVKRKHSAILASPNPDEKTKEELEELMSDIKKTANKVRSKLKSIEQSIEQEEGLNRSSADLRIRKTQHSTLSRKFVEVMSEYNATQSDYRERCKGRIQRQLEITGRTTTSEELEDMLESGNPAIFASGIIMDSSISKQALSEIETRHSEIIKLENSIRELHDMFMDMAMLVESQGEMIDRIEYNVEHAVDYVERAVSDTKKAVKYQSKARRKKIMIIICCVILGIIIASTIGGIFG

The test deals with Syntaxin-1A (UniProt P32851). Kind of test: cross-link between two proteins; cross-linking mass spectrometry.

The other results are listed elsewhere or left out.

As for Synaptotagmin-1, P21707, the “listed as a hit” value is “yes”.
